Molecular target: Recombinant human Mat2a (Homo sapiens (Human), UniProt P31153)
Assay: Determination of Mat2A activity: 384 well format absorbance-based Mat2A inhibition assay
Conditions: read-out: MAT2A IC50; 12.5 nM Mat2A, 100 μM ATP and Methionine, 2% DMSO, 120 minutes at RT, Biomol Green, absorbance at 635 nm
Protocol: Determination of Mat2A Activity
Measurement of Mat2A inhibition is performed in 384 well format absorbance-based assay.
Recombinant human Mat2a (12.5 nM) and serial diluted compounds in DMSO (range of concentrations from 10 μM to […]) or controls (DMSO) are incubated for 15 minutes at room temperature (RT) in assay buffer containing 50 mM HEPES pH 7.5, 50 mM KCl, 50 mM MgCl2, 0.01% Tween 20 and 10 mM DTT. The reaction is initiated by the addition of the combined substrates ATP and Methionine, each at a final concentration of 100 μM. Final assay condition are 12.5 nM Mat2A, 100 μM ATP and Methionine Substrates and 2% DMSO. After 120 minutes of incubation at RT, the reaction is stopped by the addition of Biomol Green. The absorbance signal is measured at λ=635 nm with a multiplate reader (BMG Pherastar reader or equivalent) after 30 min of equilibration at RT.

Chains of the proteins cited; added tags and fusions are not shown.
UniProt P31153, whole entry: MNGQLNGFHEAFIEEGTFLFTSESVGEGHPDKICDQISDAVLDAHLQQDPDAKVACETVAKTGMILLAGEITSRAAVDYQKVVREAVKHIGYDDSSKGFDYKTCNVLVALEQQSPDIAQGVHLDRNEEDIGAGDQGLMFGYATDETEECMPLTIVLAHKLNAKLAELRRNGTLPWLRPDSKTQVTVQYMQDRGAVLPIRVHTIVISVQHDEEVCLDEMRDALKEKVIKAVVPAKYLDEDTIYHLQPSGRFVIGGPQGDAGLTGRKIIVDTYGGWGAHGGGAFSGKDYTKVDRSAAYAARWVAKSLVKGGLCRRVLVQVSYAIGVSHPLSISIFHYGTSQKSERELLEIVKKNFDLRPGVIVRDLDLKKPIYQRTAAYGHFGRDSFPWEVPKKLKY

Question: How did the IC50 turn out when `C[C@H]1CCO[C@H]1C(=O)n1nc(N)c2ccc(C3CC3)nc21` (relative stereo) was run?
Answer: 35 nM

From patent US20230382911A1 (Hoffmann-La Roche Inc., priority 2021, published 2023)
